{"sequences": {"note": "By UniProt entry, the sequences of proteins in these tests, tags left out. Where a name states a change or a piece, a line headed by the entry shows the natural chain unless it says otherwise.", "UniProt P34981": "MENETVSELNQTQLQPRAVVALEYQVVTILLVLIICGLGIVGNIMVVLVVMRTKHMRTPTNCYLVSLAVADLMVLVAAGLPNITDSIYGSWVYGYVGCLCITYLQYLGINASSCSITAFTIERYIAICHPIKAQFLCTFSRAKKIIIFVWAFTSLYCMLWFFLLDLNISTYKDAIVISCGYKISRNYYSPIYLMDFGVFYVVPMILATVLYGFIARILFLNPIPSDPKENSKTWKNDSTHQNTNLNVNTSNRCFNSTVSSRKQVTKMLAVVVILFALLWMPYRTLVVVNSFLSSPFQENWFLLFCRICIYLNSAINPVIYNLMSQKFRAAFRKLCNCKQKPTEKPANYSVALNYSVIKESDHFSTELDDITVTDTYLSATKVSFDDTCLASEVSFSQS"}, "source": "PubChem BioAssay AID493084", "about": "(National Center for Advancing Translational Sciences (NCATS), 2011)", "note": "The list shows a part of the results, in another mix than the full data. The source made the active and inactive calls. Rule as the data show it: active = activation above about 30%; inactive = the rest.", "data": [{"target": "Thyrotropin-releasing hormone receptor (Homo sapiens) (UniProt P34981)", "assay": "qHTS for Small Molecule Agonists and Allosteric Enhancers of Human TRH Receptor: Primary Screen for Agonists; also: 0% is about no effect.", "conditions": "TRHR cells, calcium flux fluo-8, FDSS agonist mode; at 2 µM; active compounds read high", "from_the_text": "NIH Chemical Genomics Center [NCGC] NIH Molecular Libraries Probe Centers Network [MLPCN] MLPCN Grant: MH089816-01 Assay Submitter (PI): Marvin Gershengorn This project aims to identify small drug-like molecules that activate (agonists) the thyrotropin releasing hormone (TRH) receptor (TRHR) or enhance its TRH-stimulated activity (allosteric enhancers). TRHR, a drug-accessible cell surface receptor expressed in specific brain regions, and its ligand TRH have been implicated in several central nervous system disorders, including depression and anxiety. Small molecule TRHR agonists or allosteric enhancers that are metabolically stable and able to cross the blood-brain barrier might serve as probes to elucidate the roles of brain TRH receptors in animal models, and might be valuable as lead compounds for the development of drugs to treat patients with central nervous system disorders. Upon TRHR-Gq activation in TRHR cells, intracellular calcium is released from stores in the endoplasmic reticulum. […] This primary screen measures compound-induced activation of calcium release.\nFor the HTS assay freshly prepared cells are plated at a density of 2000/well in 3 ul of complete DMEM medium containing 10% serum in 1536-well plates and cultured over night at 37 C in a humidified incubator with 5% CO2. The next day, 2 ul of a no wash calcium dye (ABD Bioquest) was added to the cells and plates were incubated at room temperature for 1 hour. For the assay, assay plates were loaded into the FDSS kinetic plate reader. A 10 cycle (1 second/cycle) baseline measurement is taken and then the FDSS online 1536 pintool delivers 23 nl of compound library (as well as TRH controls) to the plate. The plate is measured for kinetically at 1 cycle/sec for 180 seconds and is considered to be the agonist portion of the assay (eg, compounds which activate a positive calcium response during this portion are flagged as potential agonists). Following the 180 second read, 1 ul of either an EC20 (positive modulation assay) is delivered by an onboard pipette head. Measurements are taken kinetically for an additional 180 seconds. TRHR FDSS Screening Protocol 1. Reagent, 3 uL 2000 cells/well 1536 TC treated Black plate in media containing 10% FCS 2. Time, 18 hours, 33.5C 5% CO2 (cells grown at 37C) 3. Reagent, 2 uL ABD fluo-8 Ca dye 4. Time, 30 min-1.5hrs hours, Room temp (6 plates/batch) 5. Detector, EX 480/EM 530C, FDSS 10 cycles baseline (1sec/cycle) 6. Compound, 23 nL of stock solution from library 7. Detector, EX 480/EM 530C, FDSS […] (1sec/cycle) Agonist mode 8. Compound, 1 ul EC20 of TRH made up in HEPES HBSS, 10 nM final 9. Detector, EX 480/EM 530C, FDSS 100 cycles (1sec/cycle) Potentiator mode", "values": [{"smiles": "O=[N+]([O-])c1cc([N+](=O)[O-])c(-c2ccn[nH]2)s1", "activation": "inactive: 0.0002%"}, {"smiles": "CCN(CC)C(=S)SC(NC=O)C(Cl)(Cl)Cl", "note": "(centres undefined)", "activation": "inactive: 0.184%"}, {"smiles": "CC(C)NC(=O)NP(=O)(Oc1ccccc1)Oc1ccccc1", "activation": "inactive: -0.232%"}, {"smiles": "ClCCSc1nnc(-c2cccnc2)o1", "activation": "inactive: 0.882%"}, {"smiles": "CC(C)c1ccc(OP(=O)(Nc2ccccn2)Oc2ccccc2F)cc1", "note": "(centres undefined)", "activation": "inactive: 0.027%"}, {"smiles": "Cc1ccc(OP(=O)(Nc2ccc([N+](=O)[O-])cn2)Oc2ccc(C)cc2)cc1", "activation": "inactive: 0.985%"}, {"smiles": "Cc1ccc2nc3c(c(C)c2c1)CC(C(Cl)Cl)S3", "note": "(centres undefined)", "activation": "inactive: -0.596%"}, {"smiles": "COc1cc(C(=O)NCC2(N3CCOCC3)CCCCC2)ccc1OCC(C)C", "activation": "inactive: -0.514%"}, {"smiles": "O=[As](O)(c1ccc(O)cc1)c1ccccc1O", "activation": "inactive: 0.461%"}, {"smiles": "C[As](=O)(O)c1cccc(C(=O)O)c1", "activation": "inactive: -0.464%"}, {"smiles": "COc1ccc(N/C(=N/P(=O)(N2CCOCC2)N2CCOCC2)N2CCOCC2)cc1", "activation": "inactive: 0.677%"}, {"smiles": "COc1cc(I)ccc1[As](=O)(O)O", "activation": "inactive: 0.607%"}, {"smiles": "COc1ccc2nc(NP(=O)(c3ccccc3)c3ccccc3)sc2c1", "activation": "inactive: -1.62%"}, {"smiles": "Cc1c2c(nc3ccccc13)SC(C(Cl)Cl)C2", "note": "(centres undefined)", "activation": "inactive: 1.89%"}, {"smiles": "Cc1cc(=O)[nH]c(N[N+](=O)[O-])n1", "activation": "inactive: 0.191%"}, {"smiles": "O=C(OC1CN2CCC1CC2)C12CC3CC(CC(C3)C1)C2", "note": "(centres undefined)", "activation": "inactive: 1.72%"}, {"smiles": "CCC(C)N(CC(C)C)C(=S)SC(NC(C)=O)C(Cl)(Cl)Cl", "note": "(centres undefined)", "activation": "inactive: -0.448%"}, {"smiles": "CCOP(=O)(Nc1cccc2cccnc12)OCC", "activation": "inactive: 0.621%"}, {"smiles": "O=C(OC1CN2CCC1CC2)c1cccc([N+](=O)[O-])c1", "note": "(centres undefined)", "activation": "inactive: 0.118%"}, {"smiles": "CCOC(=O)c1ccc(NC(=O)C(C)(CCl)SC)cc1", "note": "(centres undefined)", "activation": "inactive: 0.58%"}, {"smiles": "O=C(Nc1ccncc1[N+](=O)[O-])c1ccc([N+](=O)[O-])cc1[N+](=O)[O-]", "activation": "inactive: 0.695%"}, {"smiles": "O=C(COc1ccccc1)OC1CN2CCC1CC2", "note": "(centres undefined)", "activation": "inactive: -0.0573%"}, {"smiles": "COP1(=S)c2c(C)nn(CCC#N)c2N=C(c2ccc(F)cc2)N1C", "note": "(centres undefined)", "activation": "inactive: 0.2%"}, {"smiles": "O=P(Nc1ccccn1)(c1cccc2ccccc12)c1cccc2ccccc12", "activation": "inactive: 2.27%"}, {"smiles": "Cc1cc(SC(NC=O)C(Cl)(Cl)Cl)ncn1", "note": "(centres undefined)", "activation": "inactive: 0.622%"}, {"smiles": "O=[N+]([O-])c1ccc(Nc2ccc(Oc3ccc([N+](=O)[O-])cc3[N+](=O)[O-])cc2)c([N+](=O)[O-])c1", "activation": "inactive: 0.412%"}, {"smiles": "CCOC(=O)Nc1cccc([As](=O)(O)O)c1", "activation": "inactive: -0.903%"}, {"smiles": "Cc1cc(SC(NC(=O)c2ccccc2)C(Cl)(Cl)Cl)nc(C(C)C)n1", "note": "(centres undefined)", "activation": "inactive: 0.521%"}, {"smiles": "CCCCOc1ccc(C(=O)NCC2(N3CCCCC3)CCCCC2)cc1OC", "activation": "active: 30.6%"}, {"smiles": "CCOC(=O)Nc1ccc([As](=O)(O)O)c(O)c1", "activation": "inactive: -0.972%"}, {"smiles": "Nc1cccc([As](=O)(O)c2ccccc2)c1", "activation": "inactive: 0.405%"}, {"smiles": "O=P1(Nc2ccc(Br)cn2)COc2ccccc2OC1", "activation": "inactive: 0.143%"}, {"smiles": "NS(=O)(=O)c1cccc(NC(=O)COC(=O)C(O)(c2ccccc2)c2ccccc2)c1", "activation": "inactive: 0.241%"}, {"smiles": "Cc1ccc(OCC(=O)OC2CN3CCC2CC3)cc1", "note": "(centres undefined)", "activation": "inactive: 0.391%"}, {"smiles": "O=[As](O)(c1cccs1)c1cccs1", "activation": "inactive: -1.99%"}, {"smiles": "O=P1(Nc2ncccn2)COc2ccccc2OC1", "activation": "inactive: -1.81%"}, {"smiles": "CN(C)C1(CNC(=O)c2ccc(S(C)(=O)=O)cc2)CCCCC1", "activation": "inactive: 1.91%"}, {"smiles": "O=C(/C=C/c1ccccc1)OC1CN2CCC1CC2", "note": "(centres undefined)", "activation": "inactive: 2.18%"}, {"smiles": "CC1CCC(C(C)C)C(OP(=O)(Nc2ccccn2)c2ccccc2)C1", "note": "(centres undefined)", "activation": "inactive: 1.03%"}, {"smiles": "Cc1ccc(C(=O)OC2CN3CCC2CC3)cc1", "note": "(centres undefined)", "activation": "inactive: 1.45%"}, {"smiles": "Cc1nn(-c2ccccc2)c2c1P(=O)(N1CCOCC1)N(C)C(c1ccccc1)=N2", "note": "(centres undefined)", "activation": "inactive: -0.358%"}, {"smiles": "CC(C)/C=N\\N=C(\\N)N[N+](=O)[O-]", "activation": "inactive: 0.512%"}, {"smiles": "CN(C(=O)Cc1ccc(Cl)c(Cl)c1)[C@@H]1CCCC[C@H]1N1CCCC1", "activation": "inactive: 0.434%"}, {"smiles": "O=[As](O)(c1ccccc1Br)c1ccccc1Br", "activation": "inactive: 0.591%"}, {"smiles": "COc1ccccc1CNC(=O)COC(=O)C(O)(c1ccccc1)c1ccccc1", "activation": "inactive: -0.693%"}, {"smiles": "CC(C)(C)C(=O)NC(Sc1ncccn1)C(Cl)(Cl)Cl", "note": "(centres undefined)", "activation": "inactive: 0.232%"}, {"smiles": "Clc1n[nH]nc1-c1nn[nH][15n]1", "activation": "inactive: 0.2%"}, {"smiles": "CCOP(=O)(NC(=NC(C)c1ccccc1)NC(C)c1ccccc1)OCC", "note": "(centres undefined)", "activation": "inactive: 0.898%"}, {"smiles": "O=P1(Nc2ccccn2)COc2ccccc2OC1", "activation": "inactive: 0.81%"}, {"smiles": "CCC1=CC2Cc3nc4ccc(Cl)cc4c(N)c3C(C1)C2", "note": "(centres undefined)", "activation": "inactive: 0.784%"}, {"smiles": "CCOP(=O)(Nc1ccc(C)cn1)OCC", "activation": "inactive: 0.917%"}, {"smiles": "CCOP(=O)(Nc1cccc2ccccc12)OCC", "activation": "inactive: 0.16%"}, {"smiles": "COc1cc(C2NCCC3(OCCO3)C2(C)C)cc(OC)c1OC", "note": "(centres undefined)", "activation": "inactive: -0.129%"}, {"smiles": "Cc1ccc(NCCc2c([N+](=O)[O-])cc([N+](=O)[O-])cc2[N+](=O)[O-])cc1", "activation": "inactive: 0.246%"}, {"smiles": "Nc1cccc2c([As](=O)(O)O)cccc12", "activation": "inactive: 21.6%"}, {"smiles": "CCCOP(=S)(Nc1nc(N)cc(=O)[nH]1)OCCC", "activation": "inactive: -1.7%"}, {"smiles": "O=[As](O)(c1cccc(O)c1)c1cccc(O)c1", "activation": "inactive: 0.22%"}, {"smiles": "Cc1cccc(OCC(=O)OC2CN3CCC2CC3)c1", "note": "(centres undefined)", "activation": "inactive: -0.363%"}, {"smiles": "O=C(OC1CN2CCC1CC2)c1ccc(Cl)cc1", "note": "(centres undefined)", "activation": "inactive: 0.946%"}, {"smiles": "CS(=O)(=O)c1ccc(Cl)c(NC(=O)COC(=O)C(O)(c2ccccc2)c2ccccc2)c1", "activation": "inactive: -0.896%"}, {"smiles": "COc1cc(C(=O)NCC2(N3CCOCC3)CCCCC2)cc(Cl)c1OC(C)C", "activation": "inactive: -0.196%"}, {"smiles": "O=[As](O)(O)c1cccnc1", "activation": "inactive: -0.754%"}, {"smiles": "CCOP1(=S)c2c(C)nn(CCC#N)c2N=C(c2ccc(F)cc2)N1C", "note": "(centres undefined)", "activation": "inactive: 0.21%"}, {"smiles": "CN(C(=O)Cc1ccccc1)[C@@H]1CC[C@]2(CCCO2)C[C@H]1N1CCCC1", "activation": "inactive: -0.328%"}]}]}
